Measured values published in patent publication US11958861B2, “Spirocyclic lactams as JAK2 V617F inhibitors” (Incyte Corporation, priority 2021, dated 2024).

Amino acid sequences for entries named in this document (tags omitted). Residues count along the entry.
UniProt O60674, 536-812 V617F/W659A/W777A/F794H: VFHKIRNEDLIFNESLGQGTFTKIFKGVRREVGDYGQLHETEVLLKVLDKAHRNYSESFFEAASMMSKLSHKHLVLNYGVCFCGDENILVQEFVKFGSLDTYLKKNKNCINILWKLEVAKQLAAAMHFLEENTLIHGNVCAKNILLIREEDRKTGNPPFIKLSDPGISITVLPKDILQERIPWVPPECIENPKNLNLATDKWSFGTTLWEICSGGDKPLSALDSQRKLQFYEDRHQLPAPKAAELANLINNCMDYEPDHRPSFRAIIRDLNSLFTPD
UniProt O60674, 536-812 W659A/W777A/F794H: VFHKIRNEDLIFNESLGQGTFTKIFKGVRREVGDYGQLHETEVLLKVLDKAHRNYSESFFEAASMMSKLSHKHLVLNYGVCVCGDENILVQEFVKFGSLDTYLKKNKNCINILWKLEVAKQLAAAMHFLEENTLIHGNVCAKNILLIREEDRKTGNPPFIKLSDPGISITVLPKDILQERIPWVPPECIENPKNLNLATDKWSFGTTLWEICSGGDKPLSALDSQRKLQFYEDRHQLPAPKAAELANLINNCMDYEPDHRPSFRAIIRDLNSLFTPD
UniProt O60674, 826-1132: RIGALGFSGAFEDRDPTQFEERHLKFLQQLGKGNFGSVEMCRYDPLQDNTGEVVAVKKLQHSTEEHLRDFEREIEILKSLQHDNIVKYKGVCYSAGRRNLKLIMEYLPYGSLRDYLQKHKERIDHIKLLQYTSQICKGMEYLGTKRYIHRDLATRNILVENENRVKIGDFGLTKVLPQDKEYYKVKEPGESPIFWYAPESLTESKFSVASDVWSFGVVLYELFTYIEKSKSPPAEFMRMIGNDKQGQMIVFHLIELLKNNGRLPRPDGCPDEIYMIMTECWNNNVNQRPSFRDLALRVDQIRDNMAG
UniProt O60674, 808-1132: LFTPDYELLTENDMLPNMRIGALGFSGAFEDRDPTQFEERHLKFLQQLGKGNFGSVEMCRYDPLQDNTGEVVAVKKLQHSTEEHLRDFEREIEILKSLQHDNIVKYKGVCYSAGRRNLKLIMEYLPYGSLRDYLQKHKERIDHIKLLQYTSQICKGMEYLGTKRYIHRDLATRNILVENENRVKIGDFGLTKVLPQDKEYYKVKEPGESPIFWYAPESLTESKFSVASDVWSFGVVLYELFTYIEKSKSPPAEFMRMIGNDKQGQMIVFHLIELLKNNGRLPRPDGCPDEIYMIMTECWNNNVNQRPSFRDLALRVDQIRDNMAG

Assays:
[1] = target: T1, pseudo-kinase domain (JH2, amino-acids 536-812) of human V617F mutant JAK2 (Homo sapiens, UniProt O60674, F794H/V617F/W659A/W777A); assay: JAK2 LanthaScreen JH2-V617F Binding Assay; conditions: 1 hour at 25° C.
T1 construct: pseudo-kinase domain (JH2, amino-acids 536-812 with 3 surface mutations W659A, W777A, F794H); purchased BPS Bioscience 79498; host or cells: baculovirus expression system
Experimental: Example C. JAK2 LanthaScreen JH2-V617F Binding Assay
(§1) JAK2 JH2-V617F binding assay utilizes pseudo-kinase domain (JH2, amino-acids 536-812 with 3 surface mutations W659A, W777A, F794H) of human V617F mutant JAK2 expressed as C-terminal His-Avi-tagged, biotinylated protein in a baculovirus expression system (BPS Bioscience, Catalog #79498). The assay was conducted in black 384-well polystyrene plates in a final reaction volume of 20 μL. JAK2 JH2-V617F (0.26 nM) was incubated with compounds (100 nL serially diluted in DMSO) in the presence of 50 nM Fluorescent JAK2-JH2 Tracer (MedChem Express Catalog #HY-102055) and 0.25 nM Streptavidin-Tb cryptate (Cisbio Part #610SATLB) in assay buffer (50 mM Tris, pH=7.5, 10 mM MgCl2, 0.01% Brij-35, 0.1% BSA, 1 mM EGTA, 5% Glycerol and 5 mM DTT). Non-specific binding was accessed in the presence of 2 mM ATP. After incubation for 1 hour at 25° C., LanthaScreen signals were read on a PHERAstar FS plate reader (BMG LABTECH). Data was analyzed with IDBS XLfit and GraphPad Prism 5.0 software using a four parameter dose response curve to determine IC50 for each compound.

[2] = target: T2, pseudo-kinase domain (JH2, amino-acids 536-812) of human Wild Type JAK2 (Homo sapiens, UniProt O60674, F794H/W659A/W777A); assay: JAK2 LanthaScreen JH2-WT Binding Assay; conditions: 1 hour at 25° C.
T2 construct: pseudo-kinase domain (JH2, amino-acids 536-812 with 3 surface mutations W659A, W777A, F794H); purchased BPS Bioscience 79463; host or cells: baculovirus expression system
Experimental: Example B. JAK2 LanthaScreen JH2-WT Binding Assay
as §1, with “JH2-WT” for “JH2-V617F”, “Wild Type” for “V617F mutant”, “#79463).” for “#79498).”, “JH2-WT (0.145” for “JH2-V617F (0.26”

[3] = target: T3, catalytic domain (JH1, amino acids 826-1132) of human JAK2 (Homo sapiens, UniProt O60674); assay: JAK2 LanthaScreen JH1 Binding Assay; conditions: 2 hours at 25° C.
T3 construct: catalytic domain (JH1, amino acids 826-1132) of human JAK2; purchased Carna Biosciences 08-445-20N; host or cells: baculovirus expression system
Experimental: Example A. JAK2 LanthaScreen JH1 Binding Assay
JAK2 JH1 binding assay utilizes catalytic domain (JH1, amino acids 826-1132) of human JAK2 expressed as N-terminal FLAG-tagged, biotinylated protein in a baculovirus expression system (Carna Biosciences, Product #08-445-20N). The assay was conducted in black 384-well polystyrene plates in a final reaction volume of 20 μL. JAK2 JH1 (1.5 nM) was incubated with compounds (100 nL serially diluted in DMSO) in the presence of 50 nM Fluorescent JAK2-JH1 Tracer and 0.5 nM Streptavidin-Tb cryptate (Cisbio Part #610SATLB) in assay buffer (50 mM Tris, pH=7.5, 10 mM MgCl2, 0.01% Brij-35, 0.1% BSA, 1 mM EGTA, 5% Glycerol and 5 mM DTT). Non-specific binding was accessed in the presence of 2 mM ATP. After incubation for 2 hours at 25° C., LanthaScreen signals were read on a PHERAstar FS plate reader (BMG LABTECH). Data was analyzed with IDBS XLfit and GraphPad Prism 5.0 software using a four parameter dose response curve to determine IC50 for each compound.

[4] = target: T4, catalytic domain (JH1, amino acids 808-1132) of human JAK2 (Homo sapiens, UniProt O60674); assay: JAK2 HTRF Enzyme Activity Assay; format: biochemical; conditions: ATP 30 μM, read-out: ENZ 30UMATP
T4 construct: catalytic domain (JH1, amino acids 808-1132) of human JAK2; His (N); purchased BPS Bioscience 40450; host or cells: baculovirus expression system
Experimental: Example D. JAK2 HTRF Enzyme Activity Assay
JAK2 enzyme activity assays utilize catalytic domain (JH1, amino acids 808-1132) of human JAK2 expressed as N-terminal His-tagged protein in a baculovirus expression system (BPS Bioscience, Catalog #40450). The assays was conducted in black 384-well polystyrene plates in a final reaction volume of 20 μL. JAK2 (0.015 nM) was incubated with compounds (100 nL serially diluted in DMSO) in the presence of ATP (30 μM or 1 mM) and 500 nM Biotin-labeled EQEDEPEGDYFEWLE (SEQ ID NO.: 1) peptide (BioSource International, custom synthesis) in assay buffer (50 mM Tris, pH=7.5, 10 mM MgCl2, 0.01% Brij-35, 0.1% BSA, 1 mM EGTA, 5% Glycerol and 5 mM DTT) for 60 minutes at 25° C. The reactions were stopped by the addition of 10 μL of detection buffer (50 mM Tris, pH 7.8, 0.5 mg/mL BSA, 150 mM NaCl), supplemented with EDTA, LANCE Eu-W1024 anti-phosphotyrosine (PY20), (PerkinElmer, Catalog #AD0067) and Streptavidin SureLight APC (PerkinElmer Catalog #CR130-100), for a final concentration of 15 mM, 1.5 nM and 75 nM, respectively. HTRF signals were read after 30 minutes incubation at room temperature on a PHERAstar FS plate reader (BMG LABTECH). Data was analyzed with IDBS XLfit and GraphPad Prism 5.0 software using a four parameter dose response curve to determine IC50 for each compound.

4-(1′-(1-(Cyanomethyl)cyclobutyl)-2-(1-(2,2-difluoroethyl)-1H-pyrazol-4-yl)-6-methyl-7-oxo-6,7-dihydro-3H-spiro[dipyrrolo[2,3-b:3′,2′-d]pyridine-8,4′-piperidin]-1′-yl)cyclobutyl)acetonitrile, trifluoroacetate salt [Example 51]
IC50 [1]: ≤ 100 nM
IC50 [2]: ≤ 100 nM
IC50 [3]: 500 to 1250 nM
IC50 [4]: 500 to 1250 nM
